The assay concerns the target BTK wild-type kinase (Homo sapiens (Human), UniProt Q06187). Description: BTK kinase activity inhibition test in vitro (Caliper EZ Reader). It is filed as biochemical. Particulars: read-out: BTK IC50.

Sequences of proteins named here, by UniProt entry; tags and fusion partners are left off.
UniProt Q06187, whole entry: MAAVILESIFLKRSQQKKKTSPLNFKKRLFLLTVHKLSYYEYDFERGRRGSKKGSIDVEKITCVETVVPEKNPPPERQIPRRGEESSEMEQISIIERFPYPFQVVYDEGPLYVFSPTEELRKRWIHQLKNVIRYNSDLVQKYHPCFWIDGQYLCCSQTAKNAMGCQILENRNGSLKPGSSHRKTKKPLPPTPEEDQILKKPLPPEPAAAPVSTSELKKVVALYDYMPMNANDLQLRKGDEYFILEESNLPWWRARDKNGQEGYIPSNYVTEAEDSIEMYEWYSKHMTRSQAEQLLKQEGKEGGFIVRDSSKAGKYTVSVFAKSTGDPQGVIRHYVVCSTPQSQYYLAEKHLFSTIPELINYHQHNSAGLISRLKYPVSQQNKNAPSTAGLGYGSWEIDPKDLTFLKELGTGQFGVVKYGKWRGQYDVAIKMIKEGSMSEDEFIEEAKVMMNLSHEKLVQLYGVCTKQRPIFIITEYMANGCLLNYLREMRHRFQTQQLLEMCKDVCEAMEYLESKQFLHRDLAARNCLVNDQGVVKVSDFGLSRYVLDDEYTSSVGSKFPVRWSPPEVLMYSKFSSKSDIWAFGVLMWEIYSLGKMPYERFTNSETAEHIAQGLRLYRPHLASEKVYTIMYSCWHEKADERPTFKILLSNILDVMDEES

As usually defined, the IC50 is the concentration that gives 50% inhibition.

With `Nc1nccn2c(C3CCC(CO)OC3)nc(-c3ccc(C(=O)Nc4ccccn4)cc3)c12` (single isomer, unassigned), the IC50 was 20 to 100 nM.

The values above are taken from patent publication US20230364079A1, “COMPOUND AS BRAIN-PERMEABLE BTK OR HER2 INHIBITOR, PREPARATION METHOD THEREFOR, AND USE THEREOF” (CHENGDU HYPERWAY PHARMACEUTICALS CO., LTD., priority 2020, published 2023).
